Test: Water solubility / water insolubility by visual observation
Assay type: physicochemical
Settings: 0.4 g sample in 4 g distilled water, 20° C., 30 minutes
Experimental: As used herein and in the claims, a water-soluble compound means a compound having a solubility in water of 10 g/100 g H2O or more at 20° C.
4 g of distilled water and 0.4 g of a sample were sufficiently stirred at 20° C., allowed to stand for 30 minutes, and then visually observed. When white turbidity and biphasic separation were not observed, it was judged to be water soluble. When white turbidity or biphasic separation was observed, it was judged to be water insoluble.

## EO-modified bisphenol A dimethacrylate [BPE-1300N]
  water solubility / water insolubility: WATER-SOLUBLE

## glycerin dimethacrylate [GDMA]
  water solubility / water insolubility: WATER-SOLUBLE

From US12502338B2, “Dental glass ionomer cement” (GC Corporation, priority 2020, dated 2025)
